Target: T1, CB2 receptor (hCB2) (Homo sapiens, UniProt P34972)
T1 construct: expressed in transfected cells; host or cells: Xenopus laevis oocytes (cRNA injection)
Assay: Two-electrode voltage-clamp, CB2-GIRK1/GIRK2-RGS4 coupling system expressed in Xenopus oocytes
Assay type: cell-based

By UniProt entry, the sequences of proteins in these tests, tags left out.
UniProt P34972, whole entry: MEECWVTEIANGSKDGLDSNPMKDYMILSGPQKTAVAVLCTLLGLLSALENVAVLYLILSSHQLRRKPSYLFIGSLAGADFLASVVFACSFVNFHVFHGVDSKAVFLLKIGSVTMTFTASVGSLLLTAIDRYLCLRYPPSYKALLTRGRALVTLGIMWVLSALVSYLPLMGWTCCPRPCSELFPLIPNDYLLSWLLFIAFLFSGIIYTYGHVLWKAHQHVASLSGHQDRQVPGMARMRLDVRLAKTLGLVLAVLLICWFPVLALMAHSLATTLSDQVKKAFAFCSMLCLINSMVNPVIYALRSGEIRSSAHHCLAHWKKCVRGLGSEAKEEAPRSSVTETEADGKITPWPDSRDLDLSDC

For `Cc1c(C(=O)c2cccc3ccccc23)c2cccc3c2n1[C@H](CN1CCOCC1)CO3` [WIN55,212-2, reference compound], the “Receptor activation (receptor-dependent inward K+ currents, IK,WIN)” value was “activated”.
